# This is a selection; strong and weak results do not stand in their true shares. Active and inactive are the calls of the source.
# Amino acid sequences for entries named in this document (tags omitted).
# UniProt P09923, whole entry: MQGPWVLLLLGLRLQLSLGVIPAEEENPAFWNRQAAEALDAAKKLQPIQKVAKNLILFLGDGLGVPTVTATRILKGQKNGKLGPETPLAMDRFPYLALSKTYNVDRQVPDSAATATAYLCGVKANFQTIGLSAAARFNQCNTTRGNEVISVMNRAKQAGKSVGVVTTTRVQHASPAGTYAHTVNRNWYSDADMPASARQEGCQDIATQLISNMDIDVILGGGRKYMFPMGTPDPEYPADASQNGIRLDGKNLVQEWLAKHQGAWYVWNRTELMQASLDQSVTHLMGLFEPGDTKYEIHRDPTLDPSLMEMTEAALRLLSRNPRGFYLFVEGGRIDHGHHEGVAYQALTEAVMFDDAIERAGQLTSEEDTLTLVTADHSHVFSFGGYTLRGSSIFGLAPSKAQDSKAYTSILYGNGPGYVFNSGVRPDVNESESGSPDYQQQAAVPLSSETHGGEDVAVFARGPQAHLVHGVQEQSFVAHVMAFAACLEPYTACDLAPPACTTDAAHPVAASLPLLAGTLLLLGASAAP
# Molecular target: Intestinal-type alkaline phosphatase (Homo sapiens) (UniProt P09923)
# Experiment: enzymatic activation of intestinal alkaline phosphatase – biochemical, luminescence, uHTS, primary screen (AID 2524)
# Conditions: purified human IAP, CDP-Star luminescence, 30 min; at 10 µM; active compounds read high; 1 = vehicle-only enzyme, 0 = enzyme-free background
row,SMILES,activation factor
1,CC(C)(C)OC(=O)N1CCC(N(C(=O)c2ccccc2)c2ccc(Cl)cc2)CC1,inactive: 0.886
2,N#Cc1ccc(C(=O)NCC2(N3CCCCC3)CCCCC2)cc1,inactive: 1.02
3,c1ccc(CN2CCC(Nc3ccccc3)CC2)cc1,inactive: 1.01
4,CCCN1CCC(Nc2cc(OC)cc(OC)c2)CC1,inactive: 1.24
5,CN(C)C1(CNC(=O)c2cccc(C#N)c2)CCCCC1,inactive: 1.01
6,O=C(NCC1(N2CCOCC2)CCCCC1)c1cc(Br)ccc1Cl,inactive: 0.961
7,COc1cc(C(=O)NCC2(N3CCOCC3)CCCCC2)cc(OC)c1C,inactive: 1.05
8,COc1ccc(C(=O)NCC2(N3CCOCC3)CCCCC2)cc1OC,inactive: 0.938
9,N/C(=N\O)c1c(N)no[n+]1[O-],inactive: 0.949
10,CCOC(=O)N1CCC(Nc2ccc(C)cc2)CC1,inactive: 1.14
11,O=C(OC1CN2CCC1CC2)C1c2ccccc2C=Cc2ccccc21 (configuration not stated),inactive: 0.925
12,CCc1cc(C(=O)NCC2(N3CCCCC3)CCCCC2)sc1C,inactive: 0.891
13,CCOc1ncccc1C(=O)NCC1(N2CCOCC2)CCCCC1,inactive: 0.84
14,CN1CCC(Nc2ccc(F)c(Cl)c2)CC1,inactive: 1.19
15,CCCOc1ccc(C(=O)NCC2(N(C)C)CCCCC2)cc1,inactive: 0.862
16,CC(C)(C)OC(=O)N1CCC(Nc2ccccc2)CC1,inactive: 1.07
17,O=C(O)C1(Nc2ccccc2)CCN(Cc2ccccc2)CC1,inactive: 1.14
18,CCC(CO)(C(=O)OC1CN2CCC1CC2)c1ccccc1 (configuration not stated),inactive: 1.04
19,COc1cc(OC)cc(C(=O)NCC2(N3CCOCC3)CCCCC2)c1,inactive: 1.09
20,COc1cccc(C(=O)N(c2cc(C)cc(C)c2)C2CCN(C(=O)OC(C)(C)C)CC2)c1,inactive: 1.2
21,CCCOc1ccc(C)cc1CN(CCCl)CCCl,inactive: 1.06
22,CN1CCC(Nc2ccc(Cl)cc2)CC1,inactive: 1.06
23,COc1cc(OC)cc(C(=O)NCC2(N3CCCCC3)CCCCC2)c1,inactive: 1.1

row,SMILES,activation factor
1,Cc1ccc(C(=O)NCC2(N3CCCCC3)CCCCC2)o1,inactive: 0.974
2,Fc1ccccc1NC1CCN(Cc2ccccc2)CC1,inactive: 1.24
3,CCN1CCC(Nc2cccc(F)c2)CC1,inactive: 1.03
4,O=C(NCC1(N2CCCCC2)CCCCC1)c1ccco1,inactive: 0.864
5,CN(C)c1ccc(C(=O)NCC2(N3CCCCC3)CCCCC2)cc1,inactive: 1.2
6,CCOc1ccc(C)cc1CN(CCCl)CCCl,inactive: 1.18
7,O=C(NCC1(N2CCCCC2)CCCCC1)c1ccc(F)cc1,inactive: 1.02
8,CCCCOc1ccc(C(=O)NCC2(N3CCOCC3)CCCCC2)cc1,inactive: 1.16
9,COc1ccc(NC2CCN(CCc3ccccc3)CC2)c(OC)c1,inactive: 0.918
10,CCOC(=O)N1CCC(Nc2ccc(F)cc2)CC1,inactive: 1.11
11,CCOC(=O)N1CCC(Nc2cccc(C)c2)CC1,inactive: 0.979
12,Cc1ccc(OCC(C)C)c(CN(CCCl)CCCl)c1,inactive: 0.986
13,O=C(NCC1(N2CCCCC2)CCCCC1)c1ccc(=O)[nH]c1,inactive: 0.959
14,O=C(NCC1(N2CCCCC2)CCCCC1)c1cccs1,inactive: 0.936
15,COc1ccc(C(=O)NCC2(N3CCCCC3)CCCCC2)cc1,inactive: 0.968
16,COc1ccc(C(=O)NCC2(N3CCCCC3)CCCCC2)c(OC)c1OC,inactive: 1.15
17,CC(C)(C)OC(=O)N1CCC(N(C(=O)c2ccccc2)c2ccc(F)cc2)CC1,inactive: 0.938
18,CSc1ccccc1C(=O)NCC1(N2CCCCC2)CCCCC1,inactive: 0.987
19,O=C(NCC1(N2CCOCC2)CCCCC1)c1cc2ccccc2o1,inactive: 1.11
20,O=C(NCC1(N2CCCCC2)CCCCC1)c1ccc(Cl)nc1,inactive: 0.918
21,Cc1cc(C)cc(N(C(=O)c2ccccc2)C2CCN(C(=O)OC(C)(C)C)CC2)c1,inactive: 0.888
22,CCOC(=O)N1CCC(Nc2ccc(OC)cc2)CC1,inactive: 1.12
23,O=C(OC1CN2CCC1CC2)C1c2ccccc2Oc2ccccc21 (configuration not stated),inactive: 0.947

row,SMILES,activation factor
1,O=C(NCC1(N2CCCCC2)CCCCC1)c1ccc(Cl)s1,inactive: 0.994
2,N#CC1(Nc2ccccc2)CCN(Cc2ccccc2)CC1,inactive: 0.999
3,COc1ccc(Cl)cc1C(=O)NCC1(N2CCOCC2)CCCCC1,inactive: 0.925
4,COc1ccc(CN(CCCl)CCCl)cc1Cl,inactive: 1.12
5,CN(C)c1cccc(C(=O)NCC2(N3CCCCC3)CCCCC2)c1,inactive: 1.15
6,CC(C)c1ccc(NC2CCN(C(=O)OC(C)(C)C)CC2)cc1,inactive: 1.1
7,COc1cc(OC)c(C(=O)NCC2(N(C)C)CCCCC2)cc1OC,inactive: 1.09
8,O=C(NCC1(N2CCOCC2)CCCCC1)c1cc(F)c(F)cc1Cl,inactive: 1.05
9,O=C(NCC1(N2CCCCC2)CCCCC1)c1cncc(Br)c1,inactive: 0.952
10,CN1CCC(Nc2cccc(F)c2)CC1,inactive: 0.969
11,O=C(NCC1(N2CCCCC2)CCCCC1)c1ccc(OC(F)F)cc1,inactive: 1.18
12,O=C(NCC1(N2CCCCC2)CCCCC1)c1cccc([N+](=O)[O-])c1,inactive: 0.87
13,CSc1ccc(C(=O)NCC2(N3CCOCC3)CCCCC2)cc1,inactive: 1.08
14,CCN1CCC(Nc2ccc(Cl)cc2)CC1,inactive: 0.819
15,N#CC1(Nc2ccccc2)CCN(CCc2ccccc2)CC1,inactive: 1.09
16,O=C(NCC1(N2CCCCC2)CCCCC1)c1cccc(C(F)(F)F)c1,inactive: 1.1
17,CN1CCN(CCOC(=O)C(O)(c2ccccc2)c2ccccc2)CC1,inactive: 0.887
18,COc1ccc(NC2CCN(C(=O)OC(C)(C)C)CC2)cc1,inactive: 0.965
19,CC(C)c1ccc(C(=O)NCC2(N3CCOCC3)CCCCC2)cc1,inactive: 1.16
20,COc1cc(C(=O)NCC2(N3CCCCC3)CCCCC2)ccc1OC(F)F,inactive: 0.817
21,O=C(NCC1(N2CCOCC2)CCCCC1)c1cc(=O)[nH]c2ccccc12,inactive: 1.07

# From PubChem BioAssay AID2524 (Sanford-Burnham Center for Chemical Genomics, 2010)
